Experimental data from paper PMC3520743, “Bacillus cereus Fnr binds a [4Fe-4S] cluster and forms a ternary complex with ResD and PlcR” (BMC Microbiology, 2012).

Target: Fnr (B. cereus Fnr; apoFnr / holoFnr) (Bacillus cereus, UniProt A4GFD9)
Conditions: anoxic, 18 °C, pH 7.5, 4 mM DTT; cluster assembled from Fe(NH4)2(SO4)2 and L-cysteine by E. coli CsdA; one cluster per monomer

Structure (SMILES): [S]12[Fe]3[S]4[Fe]1[S]1[Fe]2[S]3[Fe]41 [[4Fe-4S]^2+ cluster]
- anaerobic CsdA-driven reconstitution; UV-visible and EPR spectroscopy, iron cont: These data are consistent with the reconstitution of one [4Fe-4S] cluster per Fnr monomer
